# Assays:
# The chains behind the UniProt entries cited, without tags or fusion partners. Where a name states a change or a piece, a line headed by the entry shows the natural chain unless it says otherwise. Residues count along the entry.
# UniProt P10828, 217-461 limits assumed: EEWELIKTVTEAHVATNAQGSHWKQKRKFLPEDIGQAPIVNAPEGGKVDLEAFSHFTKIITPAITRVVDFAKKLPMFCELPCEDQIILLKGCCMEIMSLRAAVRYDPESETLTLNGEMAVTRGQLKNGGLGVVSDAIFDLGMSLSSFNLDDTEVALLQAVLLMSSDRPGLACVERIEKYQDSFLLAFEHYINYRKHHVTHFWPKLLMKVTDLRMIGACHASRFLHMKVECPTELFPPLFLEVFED
# [1] = molecular target: TRβ-GAL4 binding domain chimeric receptors (Homo sapiens (Human), UniProt P10828); test: Thyroid hormone receptor cell assay (GAL4 luciferase reporter in HEK293-LUC cells); type: cell-based; conditions: read-out: TRβ EC50
# [2] = Human hepatocyte clearance study; conditions: human hepatocytes
# [3] = molecular target: ligand binding domain of thyroid hormone receptor beta (Homo sapiens (Human), UniProt P10828); test: Thyroid hormone receptor TR-FRET binding assay (TRβ LBD); conditions: read-out: TRβ EC50, TRβ LBD 2 nM
smiles,measurement,setting,value
N#Cc1nn(-c2cc(Cl)c(Oc3cc(Cc4ccccc4)c(=O)[nH]n3)c(Cl)c2)c(=O)[nH]c1=O,EC50,[1],12.5 µM
same,Human In vitro Clint,[2],4.11 μL/min/10^6 cells
same,Human In vitro T1/2,[2],5.62 h
same,Human Hepatocyte Remaining Percentage @ 120 min,[2]; 120 min,76%
same,Human Scale-up Clint,[2]; scaling factor 2544.3,10.5 mL/min/kg
same,EC50,[3],0.64 µM
